Experimental data from paper PMC5688848 (Bioorganic & medicinal chemistry, 2016).

Key:
[1] = molecular target: MBP-His8-REV7(R124A)-FLAG protein (Homo sapiens, UniProt Q9UI95, R124A); assay: WaterLOGSY NMR with MBP-REV7; format: binding; details: compound 200 μM, protein 10 μM, 298K
[2] = molecular target: MBP-His8-REV7(R124A)-FLAG (UniProt Q9UI95 1-211, R124A); assay: fluorescence polarisation

- Direct binding to REV7(R124A) by WaterLOGSY NMR [1]: directly binds
Molecule: CC(=O)N1CCC(Cn2cnc3scc(-c4ccc(C)o4)c3c2=O)CC1 [compound 7]

- IC50 [2]: 300 nM
Molecule: ANILKPLMSPPSREEIMATLL [non-tagged REV3L(1875–1895) peptide]

- binding result [2]: binds
Molecule: ANILKPLMSPPSREEIMATLL-{TAMRA} [C-terminal TAMRA-tagged REV3L(1875–1895) peptide]

One block for each molecule: values may come before it. Ends that are not written are not given here.
